The assay deals with BaF3/EGFR+ErbB4 cells. Description: ErbB4-dependent (NRG1β-induced, IL3-independent) proliferation of BaF3/EGFR+ErbB4 cells, semi-automated MTT assay. Format: cell-based, Mouse. The method, then:
This proliferation is dependent upon exogenous ErbB4 expression.
As noted earlier, the BaF3/EGFR+ErbB4 cells are IL3 dependent and this dependency can be rescued by stimulation of ErbB4 coupling to cell proliferation. Therefore, the specificity of each of the 19 candidate ErbB4 inhibitors was tested by assaying inhibition of ErbB4-dependent and IL3-dependent cellular proliferation in parallel.

In the case of `COc1cc2ncnc(Nc3ccc(F)c(Cl)c3)c2cc1OCCCN1CCOCC1` [Gefitinib, gefitinib, reference compound], the “NRG1β Emax ± SE in the presence of gefitinib” value is 0.35 ± 0.05 AU.
